US20240076327A1 (priority 2020, published 2024)

How the values were obtained:
[1] = Stability assay pH 9, deamidation by LCMS; format: physicochemical; conditions: aqueous buffer pH 9, 25° C.
[2] = Stability assay pH 9, remaining parent peak by LCMS; conditions: 0 h; aqueous buffer pH 9, 25° C.

SMILES	observed deamidation (percentage of predicted total possible deamidation) ([1]; 0 h)	observed deamidation (percentage of predicted total possible deamidation) ([1]; 120 h)	observed deamidation (percentage of predicted total possible deamidation) ([1]; 240 h)	observed deamidation (percentage of predicted total possible deamidation) ([1]; 360 h)	observed deamidation (percentage of predicted total possible deamidation) ([1]; 480 h)	observed overall stability (percentage of remaining parent peak) [2]
CC[C@H](C)[C@H](NC(=O)[C@H](C)N)C(=O)N[C@H]1CSSC[C@@H]2NC(=O)[C@@H]3CSSC[C@@H](C(=O)N[C@@H](CCCNC(=N)N)C(=O)N[C@@H](CCCCN)C(=O)N[C@@H](CC(=O)O)C(=O)N[C@@H](CCC(=O)O)C(=O)N4CCC[C@H]4C(=O)O)NC(=O)[C@H](Cc4ccc(O)cc4)NC(=O)[C@H](CO)NC(=O)[C@H](C(C)C)NC(=O)CNC(=O)[C@H](CC(C)C)NC(=O)[C@H](CO)NC(=O)[C@H](CCC(=O)O)NC(=O)[C@H](C)NC(=O)[C@H](CCCCN)NC(=O)[C@H](CSSC[C@H](NC(=O)[C@@H]4CCCN4C(=O)[C@H](CCCNC(=N)N)NC(=O)[C@H](CC(=O)O)NC(=O)[C@H](C)NC(=O)CNC(=O)[C@H]([C@@H](C)O)NC1=O)C(=O)N[C@@H](C)C(=O)N[C@@H](C)C(=O)N[C@H]1CSSC[C@H](NC1=O)C(=O)N1CCC[C@H]1C(=O)N3)NC(=O)[C@H](CO)NC(=O)[C@H]([C@@H](C)O)NC(=O)CNC(=O)[C@@H]1CCCN1C2=O	0%	0%	0%	0%	0%	100%
CC(C)C[C@@H]1NC(=O)[C@H](CCC(=O)O)NC(=O)[C@H](CC(N)=O)NC(=O)[C@H](CCCNC(=N)N)NC(=O)[C@H](CCC(=O)O)NC(=O)[C@H](CCC(N)=O)NC(=O)[C@H]([C@@H](C)O)NC(=O)[C@@H]2CSSC[C@@H]3NC(=O)[C@@H]4CCCN4C(=O)[C@H](CCC(N)=O)NC(=O)[C@H](CC(=O)O)NC(=O)[C@H](C(C)C)NC(=O)[C@@H]4CCCN4C(=O)[C@H](C(C)C)NC(=O)[C@@H](NC(=O)[C@H](Cc4ccc(O)cc4)NC(=O)[C@H](CCC(N)=O)NC(=O)[C@H](CO)NC(=O)CN)CSSC[C@H](NC(=O)[C@H](CSSC[C@@H](C(=O)N[C@@H](CCCNC(=N)N)C(=O)N[C@@H](C)C(=O)O)NC(=O)[C@H](Cc4ccc(O)cc4)NC(=O)[C@H](Cc4ccc(O)cc4)NC(=O)[C@H](C(C)C)NC(=O)[C@H]([C@@H](C)O)NC(=O)[C@H](Cc4c[nH]cn4)NC(=O)CNC1=O)NC(=O)[C@@H]1CCCN1C(=O)[C@H](CCC(N)=O)NC(=O)[C@H]([C@@H](C)O)NC(=O)[C@H](CC(N)=O)NC(=O)[C@H](CC(C)C)NC(=O)[C@H](CO)NC3=O)C(=O)N[C@@H](CC(=O)O)C(=O)N[C@@H](CC(=O)O)C(=O)N[C@@H](C)C(=O)N[C@@H]([C@@H](C)O)C(=O)N2	0%	0%	4%	9%	16%	100%
